Experiments:
A375 cells = experiment: cells; settings: Homo sapiens, A-375, 72 h, read-out: A375 XTT IC50 uM
[1] = test system: phospho-ERK1/2 in A375 cells; experiment: cells; settings: Homo sapiens, A-375, 3 h, read-out: A375 ICW IC50

Row | SMILES | IC50 (A375 cells) | IC50 [1]
1 | Cc1nc2cnc3cc(F)c(-c4ccc(Oc5cc(=O)n(C)cn5)cc4Cl)cc3c2n1C1CCN(CC#N)CC1 [Example 60, 2-(4-(8-(2-chloro-4-((1-methyl-6-oxo-1,6-dihydropyrimidin-4-yl)oxy)phenyl)-7-fluoro-2-methyl-1H-imidazo[4,5-c]quinolin-1-yl)piperidin-1-yl)acetonitrile] | 1.71 µM | 499 nM
2 | COc1cc(Oc2ncccn2)ccc1-c1cc2c(cc1F)ncc1nc(C)n([C@@H]3CCN(CC#N)C[C@H]3F)c12 [Example 61, 2-((3R,4R)-3-fluoro-4-(7-fluoro-8-(2-methoxy-4-(pyrimidin-2-yloxy)phenyl)-2-methyl-1H-imidazo[4,5-c]quinolin-1-yl)piperidin-1-yl)acetonitrile] | 0.193 µM | 168 nM
3 | COc1cc(Oc2ncccn2)ccc1-c1cc2c(cc1F)ncc1nc(C)n([C@H]3CCN(CC#N)C[C@@H]3F)c12 [Example 62, 2-((3S,4S)-3-fluoro-4-(7-fluoro-8-(2-methoxy-4-(pyrimidin-2-yloxy)phenyl)-2-methyl-1H-imidazo[4,5-c]quinolin-1-yl)piperidin-1-yl)acetonitrile] | 0.055 µM | 49 nM
4 | Cc1nc2cnc3cc(F)c(-c4ccc(Oc5cccn(C)c5=O)cc4Cl)cc3c2n1C1CCN(C(=O)CO)CC1 [Example 63, 3-(3-chloro-4-(7-fluoro-1-(1-(2-hydroxyacetyl)piperidin-4-yl)-2-methyl-1H-imidazo[4,5-c]quinolin-8-yl)phenoxy)-1-methylpyridin-2(1H)-one] | 0.714 µM | 245 nM
5 | CC1(n2cnc3cnc4cc(F)c(-c5ccc(Oc6ncccn6)cc5Cl)cc4c32)CCN(C(N)=O)CC1 [Example 64, 4-(8-(2-chloro-4-(pyrimidin-2-yloxy)phenyl)-7-fluoro-1H-imidazo[4,5-c]quinolin-1-yl)-4-methylpiperidine-1-carboxamide] | 0.016 µM | 7 nM
6 | Cc1ccnc(Oc2ccc(-c3cc4c(cc3F)ncc3ncn(C5(C)CCN(C(N)=O)CC5)c34)c(Cl)c2)n1 [Example 65, 4-(8-(2-chloro-4-((4-methylpyrimidin-2-yl)oxy)phenyl)-7-fluoro-1H-imidazo[4,5-c]quinolin-1-yl)-4-methylpiperidine-1-carboxamide] | 0.004 µM | 5 nM
7 | Cc1ccnc(Oc2ccc(-c3cc4c(cc3F)ncc3nc(C)n([C@H]5CCN(C(=O)CO)C[C@@H]5F)c34)c(Cl)c2)n1 [Example 68, 1-((3S,4S)-4-(8-(2-chloro-4-((4-methylpyrimidin-2-yl)oxy)phenyl)-7-fluoro-2-methyl-1H-imidazo[4,5-c]quinolin-1-yl)-3-fluoropiperidin-1-yl)-2-hydroxyethanone] | 0.0025 µM | 7 nM
8 | Cn1cnc(Oc2ccc(-c3cc4c(cc3F)ncc3ncn(C5(C)CCN(C(=O)CO)CC5)c34)c(Cl)c2)cc1=O [Example 69, 6-(3-chloro-4-(7-fluoro-1-(1-(2-hydroxyacetyl)-4-methylpiperidin-4-yl)-1H-imidazo[4,5-c]quinolin-8-yl)phenoxy)-3-methylpyrimidin-4(3H)-one] | 0.708 µM | 272 nM
9 | Cc1ccnc(Oc2ccc(-c3cc4c(cc3F)ncc3nc(C)n(C5CCN(C(N)=O)CC5)c34)c(F)c2)n1 [Example 70, 4-(7-fluoro-8-(2-fluoro-4-((4-methylpyrimidin-2-yl)oxy)phenyl)-2-methyl-1H-imidazo[4,5-c]quinolin-1-yl)piperidine-1-carboxamide] | 0.06 µM | 33 nM
10 | Cc1ccnc(Oc2ccc(-c3cc4c(cc3F)ncc3nc(C)n(C5CCN(C(=O)CO)CC5)c34)c(F)c2)n1 [Example 71, 1-(4-(7-fluoro-8-(2-fluoro-4-((4-methylpyrimidin-2-yl)oxy)phenyl)-2-methyl-1H-imidazo[4,5-c]quinolin-1-yl)piperidin-1-yl)-2-hydroxyethanone] | 0.144 µM | 76 nM
11 | Cc1nc2cnc3cc(F)c(-c4ccc(Oc5cc(=O)n(C)cn5)cc4Cl)cc3c2n1C1CCN(C(=O)CO)CC1 [Example 72, 6-(3-chloro-4-(7-fluoro-1-(1-(2-hydroxyacetyl)piperidin-4-yl)-2-methyl-1H-imidazo[4,5-c]quinolin-8-yl)phenoxy)-3-methylpyrimidin-4(3H)-one] | 0.623 µM | 197 nM
12 | Cc1nc2cnc3cc(F)c(-c4ccc(Oc5cccn(C)c5=O)cc4Cl)cc3c2n1C1CCN(C(N)=O)CC1 [Example 73, 4-(8-(2-chloro-4-((1-methyl-2-oxo-1,2-dihydropyridin-3-yl)oxy)phenyl)-7-fluoro-2-methyl-1H-imidazo[4,5-c]quinolin-1-yl)piperidine-1-carboxamide] | 0.254 µM | 175 nM
13 | Cc1nc2cnc3cc(F)c(-c4ccc(Oc5cc(=O)n(C)cn5)cc4Cl)cc3c2n1C1CCN(C(N)=O)CC1 [Example 74, 4-(8-(2-chloro-4-((1-methyl-6-oxo-1,6-dihydropyrimidin-4-yl)oxy)phenyl)-7-fluoro-2-methyl-1H-imidazo[4,5-c]quinolin-1-yl)piperidine-1-carboxamide] | 3.64 µM | 1550 nM
14 | Cn1cccc(Oc2ccc(-c3cc4c(cc3F)ncc3ncn(C5(C)CCN(C(N)=O)CC5)c34)c(Cl)c2)c1=O [Example 75, 4-(8-(2-chloro-4-((1-methyl-2-oxo-1,2-dihydropyridin-3-yl)oxy)phenyl)-7-fluoro-1H-imidazo[4,5-c]quinolin-1-yl)-4-methylpiperidine-1-carboxamide] | 0.194 µM | 259 nM
15 | Cc1ccnc(Oc2ccc(-c3cc4c(cc3F)ncc3nc(C)n(C5CCN(C(N)=O)CC5)c34)c(C)c2)n1 [Example 76, 4-(7-fluoro-2-methyl-8-(2-methyl-4-((4-methylpyrimidin-2-yl)oxy)phenyl)-1H-imidazo[4,5-c]quinolin-1-yl)piperidine-1-carboxamide] | 0.013 µM | 22 nM
16 | Cc1ccnc(Oc2ccc(-c3cc4c(cc3F)ncc3nc(C)n(C5CCN(C(=O)CO)CC5)c34)c(C)c2)n1 [Example 77, 1-(4-(7-fluoro-2-methyl-8-(2-methyl-4-((4-methylpyrimidin-2-yl)oxy)phenyl)-1H-imidazo[4,5-c]quinolin-1-yl)piperidin-1-yl)-2-hydroxyethanone] | 0.09 µM | 65 nM
17 | Cc1ccnc(Oc2ccc(-c3cc4c(cc3F)ncc3ncn(C5(C)CCN(C(N)=O)CC5)c34)c(F)c2)n1 [Example 79, 4-(7-fluoro-8-(2-fluoro-4-((4-methylpyrimidin-2-yl)oxy)phenyl)-1H-imidazo[4,5-c]quinolin-1-yl)-4-methylpiperidine-1-carboxamide] | 0.0056 µM | 7 nM
18 | CC1(n2cnc3cnc4cc(F)c(-c5ccc(Oc6ncccn6)cc5F)cc4c32)CCN(C(N)=O)CC1 [Example 80, 4-(7-fluoro-8-(2-fluoro-4-(pyrimidin-2-yloxy)phenyl)-1H-imidazo[4,5-c]quinolin-1-yl)-4-methylpiperidine-1-carboxamide] | 0.08 µM | 60 nM
19 | Cc1nc2cnc3cc(F)c(-c4ccc(Oc5cccn(C)c5=O)cc4Cl)cc3c2n1C1CCN(C(=O)[C@H](C)O)CC1 [Example 81, (S)-3-(3-chloro-4-(7-fluoro-1-(1-(2-hydroxypropanoyl)piperidin-4-yl)-2-methyl-1H-imidazo[4,5-c]quinolin-8-yl)phenoxy)-1-methylpyridin-2(1H)-one] | 1.15 µM | 381 nM

Reference: patent publication US10011599B2 (priority 2013, dated 2018)
